According to US10898567B2, “Synthetic long peptides (SLP) for therapeutic vaccination against Hepatitis B virus infection” (priority 2014, dated 2021):

System: PBMC derived from HBV-immune donors
Assay type: cell-based, human
Details: six HBV-immune donors; PBMC pre-stimulated with 3 nmol/ml peptide for 72 hours
Description: To detect antigen-specific IFNγ-producing human T cells, the PBMC were first pre-stimulated with 3 nmol/ml of the indicated peptide for 72 hours at 37° C. […] After stimulation of the PBMC, the coating antibody was aspirated from the plate, and washed 4 times with PBS. To block aspecific binding, 100 μl of IMDM containing 8% FCS was added to all wells and incubated at 37° C. for 1 hour. In the meantime, stimulated PBMC were harvested, centrifuged, resuspended in X-vivo 15 medium (Lonza) and counted. […] The medium in the wells of the PVDF plate was aspirated and 100 μl of each PBMC sample was added to the plate in quadruplicates. The plates were incubated at 37° C. overnight. The next day, the supernatant was discarded and plates are washed 6 times with PBS/Tween20 0.05%. […] Next, plates were washed 6 times using PBS/Tween20 0.05% and 1 μg/ml Extravidin-Alkaline phosphatase (ALP) (Sigma-Aldrich) was added to all wells (100 μl/well) in PBS with 1% FBS. The plates were incubated for 1 hour at RT. ALP substrate solution BCIP/NBT-plus (Mabtech) was prepared and 100 μl/well was added to all wells after the plates were washed 4 times with PBS/Tween20 0.05%. To terminate the colorimetric reaction (after 1-20 minutes), tap water was used to wash the plates extensively. After drying, the formed spots were measured on a Biosys Bioreader 5000. […]

Sequence: MENITSGFLGPLLVLQAGFFLLTRILTIPQSLDSWW [SLP30]
- average SI of the IFNγ-responses: 1.49
